These results are taken from PMC8890769.

In the assay the target is RBX1 (human (endogenous in U2OS)) (UniProt P62877). Put plainly: proximity ligation.

Consider “ELOF1-TY1 (from UniProt P60002 1-83) (natural protein)”, for which the cells with an increased PLA signal at sites of local DNA damage (% of the cells) came out at 50.
